Compound activity as filed in PubChem.
DENV2 CPE rescue: DENV2-induced cell death inhibition; AID 651640; 350,000 tested, 1.7% active; CPE inhibition, % at 9.99 µM; DENV2-infected cells, cytopathic effect rescue, plate reader; in the data active = CPE inhibition above about 20%, passing the limit was not always enough; inconclusive = no clear call, values can overlap the other calls; tested in BHK-21 cells
UUG fidelity: modulators of start codon recognition fidelity in yeast; AID 602363; activity score, % at 18.7 µM; S. cerevisiae UUG-firefly luciferase reporter, luminescence/redox ratio; actives 0.13% (n = 350,000);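 active = replicate mean at a twofold rise or more, about +100% in these data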;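 note: firefly luciferase made from a UUG start codon reports start codon fidelity; reporter light over untreated wells divided by growth signal over untreated wells; some hits fall short of that in this replicate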
Cneo AK release: causes C. neoformans cell lysis; adenylate kinase release luminescence, 4 h; normalised: neutral wells 0, clomiphene wells 100; lysis activity, % at 15 µM; 360,000 tested, 0.2% active;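 active = mean lysis activity across replicates of at least 80%, whatever share of replicates individually reach that level; inactive = mean lysis activity below 80%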
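Test system: log-phase Cryptococcus neoformans yeast cells. Input: 5 × 10^6 yeast cells/mL. Medium: fresh YPD growth medium. Doses: single dose. Incubation: static 4 h at 37 °C with compound, 1 h detection. Measured by: luminescent adenylate kinase detection reagent. Read-out: signal increase indicating cell lysis. Benchmarks: Clomiphene.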
E-sel inducer: induces E-selectin expression in human endothelial cells | HUVEC E-selectin immunofluorescence imaging; normalized: neutral wells 0, TNF-alpha wells 100 | P16581 | activation, % at 7.58 µM | 260,000 tested, 0.37% active;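 active = mean E-selectin-positive cell signal at least 10% of the positive control, reached in at least 60% of replicates, without over 20% cell loss; inconclusive = no rule given, readout overlaps actives, possibly toxicity-flagged; inactive = the rest, including those meeting only one limit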
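Material: HUVEC primary endothelial cells; Amount: 3,000 cells per well; Dosing: single concentration; Medium: EGM-2 growth medium on 0.1% gelatin-coated wells; Read-out basis: percent E-selectin-positive cells; Signal: immunofluorescence imaging; Control set: TNF-alpha, DMSO.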
A number is an active result. Shown are actives, neighbours in structure and some others; about 1.8% of the full set was active somewhere.

CC(C)n1c(SCc2ccccc2F)nc2c1c(=O)n(C)c(=O)n2C was read as DENV2 CPE rescue inactive, UUG fidelity inactive and Cneo AK release inactive.
Screening COc1ccccc1CSc1nc2c(c(=O)n(C)c(=O)n2C)n1C returned DENV2 CPE rescue inactive, UUG fidelity inactive, Cneo AK release inactive and E-sel inducer 48.4.
`CO[C@H]1CN(C)C(=O)c2cc(NS(C)(=O)=O)ccc2OC[C@H](C)N(Cc2nccs2)C[C@H]1C` gave DENV2 CPE rescue inactive, UUG fidelity inactive, Cneo AK release inactive and E-sel inducer inactive.
Screening COc1cccc(S(=O)(=O)Nc2ccc3c(c2)OC[C@H](C)NC[C@@H](C)[C@H](OC)CN(C)C3=O)c1 returned DENV2 CPE rescue inactive, UUG fidelity inactive, Cneo AK release 86.5 and E-sel inducer inactive.
Screening CO[C@@H]1CN(C)C(=O)c2cc(NS(=O)(=O)c3ccccc3)ccc2OC[C@@H](C)NC[C@@H]1C returned DENV2 CPE rescue 29.2, UUG fidelity inactive, Cneo AK release inactive and E-sel inducer inactive.
CO[C@@H]1CN(C)C(=O)c2cc(NS(=O)(=O)c3ccccc3F)ccc2OC[C@@H](C)NC[C@@H]1C was read as DENV2 CPE rescue inactive, UUG fidelity inactive, Cneo AK release inactive and E-sel inducer inactive.
CO[C@H]1CN(C)C(=O)c2cc(NS(=O)(=O)c3ccccc3F)ccc2OC[C@@H](C)NC[C@@H]1C was read as DENV2 CPE rescue 65.4, UUG fidelity inactive, Cneo AK release inactive and E-sel inducer inactive.
COc1cccc(S(=O)(=O)Nc2ccc3c(c2)C(=O)N(C)C[C@@H](OC)[C@@H](C)CN[C@H](C)CO3)c1 was read as DENV2 CPE rescue 22.4, UUG fidelity inactive, Cneo AK release inactive and E-sel inducer inactive.
Screening Cc1ccccc1S(=O)(=O)N[C@H]1CC[C@H](CCn2cc(-c3ccc(F)cc3)nn2)O[C@@H]1CO returned DENV2 CPE rescue inconclusive, UUG fidelity inactive, Cneo AK release inactive and E-sel inducer inactive.
For CN1CCN(C(=O)C[C@@H]2CC[C@H]3[C@@H](COC[C@H](O)CN3C(=O)Nc3ccc(Cl)cc3)O2)CC1 the results were DENV2 CPE rescue inactive, UUG fidelity inactive, Cneo AK release inactive and E-sel inducer inactive.
`O=C(C[C@@H]1CC[C@@H]2[C@H](COC[C@H](O)CN2C(=O)c2ccccn2)O1)N1CCN(c2ccccc2)CC1` gave DENV2 CPE rescue inactive, UUG fidelity inactive, Cneo AK release inactive and E-sel inducer inactive.
For CNC(=O)C[C@@H]1CC[C@@H]2[C@H](COC[C@H](O)CN2C(=O)c2ccccn2)O1 the results were DENV2 CPE rescue 69.3, UUG fidelity inactive, Cneo AK release inactive and E-sel inducer inactive.
Screening O=C(C[C@@H]1CC[C@H]2[C@@H](COC[C@@H](O)CN2C(=O)c2ccncc2)O1)Nc1ccc(-c2ccccc2)cc1 returned DENV2 CPE rescue 20.9, UUG fidelity inactive, Cneo AK release inactive and E-sel inducer inactive.
O=C(C[C@H]1CC[C@@H]2[C@H](COC[C@H](O)CN2C(=O)c2ccccn2)O1)N1CCN(c2ccccc2)CC1 was read as DENV2 CPE rescue 38.9, UUG fidelity inactive, Cneo AK release inactive and E-sel inducer inactive.
Screening O=C1N[C@H](Cc2ccccc2)COCc2cn(nn2)CC[C@H]1Cc1ccccc1 returned DENV2 CPE rescue inconclusive, Cneo AK release inactive and E-sel inducer inactive.
`CC1CCc2sc(C(=O)NN=C3CCCC3)cc2C1` (stereo not given) gave DENV2 CPE rescue 51.8, UUG fidelity inactive, Cneo AK release inactive and E-sel inducer inactive.
`O=C(C[C@@H]1C=C[C@H](NC(=O)C2CCC2)[C@@H](CO)O1)Nc1nccs1` gave DENV2 CPE rescue inactive, UUG fidelity inactive, Cneo AK release inactive and E-sel inducer inactive.
CCNC(=O)C[C@@H]1CC[C@@H]2[C@H](COc3ccc(NC(=O)Nc4ccccc4C)cc3C(=O)N2C)O1 was read as DENV2 CPE rescue inactive, UUG fidelity inactive, Cneo AK release inactive and E-sel inducer inactive.
Cc1ccccc1S(=O)(=O)N1CC[C@H]2[C@@H](CO)N(C)c3ccc(Br)cc3[C@H]21 was read as DENV2 CPE rescue 142.6, UUG fidelity inactive, Cneo AK release inactive and E-sel inducer inactive.
`CN1c2ccc(Br)cc2[C@H]2[C@H](CCN2S(=O)(=O)c2ccccc2F)[C@@H]1CO` gave DENV2 CPE rescue 40.5, UUG fidelity inactive, Cneo AK release inactive and E-sel inducer inactive.
Screening Cc1ccccc1S(=O)(=O)N1CC[C@@H]2[C@@H](CO)N(C)c3ccc(Br)cc3[C@@H]21 returned DENV2 CPE rescue inactive, UUG fidelity inactive, Cneo AK release inactive and E-sel inducer inactive.
